From US11110104B2, “Glutamine antagonists for the treatment of cognitive deficits and psychiatric disorders” (THE JOHNS HOPKINS UNIVERSITY, priority 2015, dated 2021)

Test system: EcoHIV
Experiment: Viral load in EcoHIV-infected mice
Details: DON 1 mg/kg, i.p., q.o.d.

Structure (SMILES): [N-]=[N+]=CC(=O)CC[C@H](N)C(=O)O [DON, 6-diazo-5-oxo-L-norleucine]
- peripheral viral load: caused an increase in peripheral viral load
